Experimental data: US8940343B2, “Personal care composition” (Conopco Inc., priority 2010, dated 2015)

Conditions: known phenolic antioxidants compared with theaflavin

isobutein
stabilizing property for sunscreens: did not provide the stabilizing property
